Experimental data as given in patent US9624201B2, “Inhibitors of bruton's tyrosine kinase” (Hoffmann-La Roche Inc., priority 2013, dated 2017).

The chains behind the UniProt entries cited, without tags or fusion partners. Where a name states a change or a piece, a line headed by the entry shows the natural chain unless it says otherwise.
UniProt Q06187: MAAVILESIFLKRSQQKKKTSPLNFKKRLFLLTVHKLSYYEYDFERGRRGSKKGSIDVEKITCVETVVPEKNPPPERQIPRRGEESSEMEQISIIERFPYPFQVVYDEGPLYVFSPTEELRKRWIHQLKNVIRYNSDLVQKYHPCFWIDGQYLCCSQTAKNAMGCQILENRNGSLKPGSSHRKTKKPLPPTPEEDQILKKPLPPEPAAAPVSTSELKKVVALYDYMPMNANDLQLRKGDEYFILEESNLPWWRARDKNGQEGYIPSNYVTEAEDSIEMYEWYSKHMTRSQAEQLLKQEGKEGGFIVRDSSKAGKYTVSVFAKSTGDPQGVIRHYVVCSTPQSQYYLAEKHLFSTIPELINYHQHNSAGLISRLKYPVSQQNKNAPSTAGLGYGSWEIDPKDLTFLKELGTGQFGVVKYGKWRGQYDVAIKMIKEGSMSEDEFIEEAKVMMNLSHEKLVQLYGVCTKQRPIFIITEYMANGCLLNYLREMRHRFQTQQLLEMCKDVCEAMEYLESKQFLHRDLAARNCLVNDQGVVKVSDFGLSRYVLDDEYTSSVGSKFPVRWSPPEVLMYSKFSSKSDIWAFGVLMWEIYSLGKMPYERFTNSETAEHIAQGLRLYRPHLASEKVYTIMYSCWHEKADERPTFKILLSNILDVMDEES

Target: Bruton's Tyrosine Kinase (inactivated state) (Homo sapiens (Human), UniProt Q06187)
Assay: Bruton's Tyrosine Kinase (BTK) Inhibition TR-FRET (Time Resolved FRET) competition assay
Format: binding
Details: inactivated state of BTK; Kinase Tracer 178; incubated 18-24 h at 14° C.
Description: This BTK competition assay measures compound potency (IC50) for the inactivated state of Bruton's Tyrosine Kinase using FRET (Forster/Flouresence Resonance Energy Transfer) technology. The BTK-Eu complex was incubated on ice one hour prior to use at a starting concentration of 50 nM BTK-Bioease™: 10 nM Eu-streptavidin (Perkin-Elmer Catalog# AD0062). The assay buffer consisted of 20 mM HEPES (pH 7.15), 0.1 mM DTT, 10 mM MgCl2, 0.5 mg/ml BSA with 3% Kinase Stabilizer (Fremont Biosolutions, Catalog # STB-K02). After 1 h, the reaction mixture from above was diluted 10 fold in assay buffer to make 5 nM BTK: 1 nM Eu-Streptavidin complex (donor fluorophore). 18 μl of a mixture of 0.11 nM BTK-Eu and 0.11 nM Kinase Tracer 178 (Invitrogen, Catalog # PV5593,) with BTK-Eu alone as no negative control, was then dispensed into 384-well flat bottom plates (Greiner, 784076). […]
After the incubation the plates were read on a BMG Pherastar Fluorescent plate reader (or equivalent) and used to measure the emission energy from the europium donor fluorophore (620 nm emission) and the FRET (665 nm emission). […] Percent of maximal FRET was calculated using following equation: % max FRET=100×[(FSRcmpd−FSRmean min)/(FSRmean max−FSRmean min)] where FSR=FRET Signal ratio. % Max FRET curves were plotted in Activity Base (Excel) and the IC50(%), hill slope, z′ and % CV were determined. […]

## Cc1cc(Oc2cccc(F)c2F)ccc1-n1ncc(C(=O)c2cc3c(CN4CCOCC4)cccc3[nH]2)c1N [Compound 19, {5-Amino-1-[4-(2,3-difluoro-phenoxy)-2-methyl-phenyl]-1H-pyrazol-4-yl}-(4-morpholin-4-ylmethyl-1H-indol-2-yl)-methanone]
  IC50: 5.59 nM
